Assay results as given in US10086082B2, “Plant steroids and uses thereof” (DAVIDSON LOPEZ LLC, priority 2011, dated 2018).

Tested on: Caco-2 cells
Assay: Gene expression profiling of Caco-2 cells treated with compounds (Illumina HT-12 arrays, Volcano plots)
Format: cell-based, human

“Stigmasterol Triethyleneglycol Oxyacetic Acid Prednisolone Ester [SE-41]” was tested, and the “Interleukin-1, beta gene regulation” value (24 hours exposure, gene array) was “downregulated”, the “upregulation of insulin induced gene 1” value (24 hours exposure, gene profiling experiments) was 1.5 fold and the “interleukin receptor and interleukins affected” value (gene array) was “affected”.

For “Stigmasterol Triethyleneglycol Prednisolone Succinate [SE-22]”, the “interleukin receptor and interleukins affected” value (gene array) was “affected” and the “similarity of gene profile to prednisone” value (gene array) was “more similar gene profiles to prednisone”.
